Test results from PubChem BioAssay AID521 (Sanford-Burnham Center for Chemical Genomics, 2006).
This is a selection; strong and weak results do not stand in their true shares. The source made the active and inactive calls. Cut-off read from the data, not from the text of the source: active = inhibition above about 50%; inconclusive = no clear call, values can overlap the other calls; inactive = below that.

By UniProt entry, the sequences of proteins in these tests, tags left out. Where a name states a change or a piece, a line headed by the entry shows the natural chain unless it says otherwise.
UniProt P35236: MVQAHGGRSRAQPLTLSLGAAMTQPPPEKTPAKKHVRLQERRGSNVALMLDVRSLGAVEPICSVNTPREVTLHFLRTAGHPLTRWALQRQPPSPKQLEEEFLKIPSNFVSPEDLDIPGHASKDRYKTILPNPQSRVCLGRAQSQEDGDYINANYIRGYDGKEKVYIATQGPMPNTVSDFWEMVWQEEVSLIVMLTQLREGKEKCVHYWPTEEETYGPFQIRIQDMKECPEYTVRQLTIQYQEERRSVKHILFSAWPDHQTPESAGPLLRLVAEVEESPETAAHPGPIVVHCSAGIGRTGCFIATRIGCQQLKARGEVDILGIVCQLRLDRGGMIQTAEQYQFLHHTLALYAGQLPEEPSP

These compounds were tested against Tyrosine-protein phosphatase non-receptor type 7 (Homo sapiens) (UniProt P35236) (assay: inhibitors of human HePTP phosphatase, primary screen, biochemical, absorbance, leukemia target (AID 521;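 note: plate controls were vehicle for no effect and reference inhibitor for full effect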)). Settings: recombinant HePTP phosphatase activity, OD absorbance; at 20 µM; active compounds read high.

Row | Compound | inhibition
1 | O=C(NC(SC1=NCCS1)C(Cl)(Cl)Cl)c1ccc(I)cc1 (stereo not given) | inactive: 4%
2 | O=C(OC1CN2CCC1CC2)C12CC3CC(CC(C3)C1)C2 (stereo not given) | inactive: 9.7%
3 | O=C(CF)NC(Sc1ccc(Cl)cc1)C(Cl)(Cl)Cl (stereo not given) | inactive: 6.8%
4 | O=C(COc1ccccc1)OC1CN2CCC1CC2 (stereo not given) | inactive: 5.6%
5 | COC(=O)c1ccc(OP(=O)(Oc2ccc(Cl)cc2C)SCC(C)C)cc1 (stereo not given) | inactive: -4.9%
6 | COP1(=S)c2c(C)nn(CCC#N)c2N=C(c2ccc(F)cc2)N1C (stereo not given) | inactive: 3.9%
7 | Cc1nn(-c2ccccc2)c2c1P(=O)(N1CCOCC1)N(C)C(c1ccccc1)=N2 (stereo not given) | inactive: -5%
8 | Cc1ccc(SC(NC(=O)c2ccccc2)C(Cl)Cl)cc1 (stereo not given) | inactive: -2.3%
9 | Cc1ccc(OCC(=O)OC2CN3CCC2CC3)cc1 (stereo not given) | inactive: -5.2%
10 | O=P1(Nc2ccc(Br)cn2)COc2ccccc2OC1 | inactive: -2.3%
11 | O=P1(Nc2ncccn2)COc2ccccc2OC1 | inactive: -0.1%
12 | Cc1cc(C)nc(SC(NC(=O)c2ccccc2)C(Cl)(Cl)Cl)n1 (stereo not given) | inactive: 3.2%
13 | Clc1n[nH]nc1-c1nn[nH][15n]1 | inactive: 3.2%
14 | O=P1(Nc2ccccn2)COc2ccccc2OC1 | inactive: 3%
15 | Cc1cccc(OCC(=O)OC2CN3CCC2CC3)c1 (stereo not given) | inactive: 4%
16 | O=P(Nc1nccs1)(c1ccccc1)c1nc2ccccc2s1 (stereo not given) | inactive: 13.7%
17 | CCOP1(=S)c2c(C)nn(CCC#N)c2N=C(c2ccccc2F)N1C (stereo not given) | inactive: -11.9%
18 | CCOP1(=S)c2c(C)nn(CCC#N)c2N=C(c2ccc(F)cc2)N1C (stereo not given) | inactive: 6.3%
19 | COC(=O)c1cc2c(s1)N=C(c1ccccc1)N(C)P2(=O)N1CCOCC1 (stereo not given) | inactive: -0.2%
20 | COC(=O)NC(Sc1ccc(Cl)cc1)C(Cl)Cl (stereo not given) | inactive: -0.3%
21 | O=P1(Nc2nc3ccc(Cl)cc3s2)COc2ccccc2O1 (stereo not given) | inactive: 3.9%
22 | c1nnnn1CCn1cnnn1 | inactive: -12.5%
23 | O=P(Nc1nccs1)(c1ccccc1)c1ccccc1 | inactive: 4.6%
24 | O=CNC(Sc1nc2ccccc2o1)C(Cl)(Cl)Cl (stereo not given) | inactive: 10.5%
25 | CCCCSP(=O)(OCC(C)C)OCC(C)C | inactive: 4.5%
26 | O=C(OC1CN2CCC1CC2)c1cccc(Cl)c1 (stereo not given) | inactive: -6.7%
27 | CCOC(=O)NC(Sc1nc2ccccc2o1)C(Cl)(Cl)Cl (stereo not given) | inactive: -5.1%
28 | CCc1nc2c(n1)c1c(non1O)c1c2no[n+]1[O-] | inactive: 9.6%
29 | CCCCOP(=O)(OCCCC)SC | inactive: 4.5%
30 | Cc1c2non([O-])c-2c(C)[n+](=O)[n+]1[O-] | inactive: 2.8%
